64 compounds from PubChem BioAssay AID504558 (Broad Institute, 2011) can be followed below.

The structures appear in SMILES notation. The list shows a part of the results, in another mix than the full data. Active and inactive are the calls of the source. Rule as the data show it: active = inhibition above about 41%; inconclusive = no clear call, values can overlap the other calls; inactive = below that.

This experiment in a line: EBV LMP1-driven NF-kappaB luciferase reporter inhibitors, primary screen, cell-based, luminescence, single point (AID 504558).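 Also: 0% = neutral control wells and 100% = reference inhibitor control.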 The note with it: LMP1-induced NF-kappaB luciferase reporter cells, at 12.5 µM, stronger effect = higher value. (A reporter such as luciferase makes a cellular process visible.)
Turning to `CN(C)C(=O)Oc1noc2ccccc12`, the inhibition is inactive: 3.45%.
As to `O=c1c2cc([N+](=O)[O-])ccc2[nH]c2c([N+](=O)[O-])cc([N+](=O)[O-])cc12`, the inhibition was inactive: 7.51%.
On to `O=P1(Nc2nc3ccc(Cl)cc3s2)COc2ccccc2O1` (centres undefined), for which the inhibition is inactive: -9.95%.
Take `CCOc1ccc(C2=NCC(CBr)S2)cc1` (centres undefined): the inhibition is inactive: -0.882%.
`CC(C)(C)C(=O)NC(Sc1ccccc1)C(Cl)(Cl)Cl` (centres undefined): the inhibition is inactive: 6.6%.
The value for `CCc1cc(O)c([N+](=O)[O-])c(C)c1[N+](=O)[O-]` was inactive: 2.36%.
For `Cc1ccccc1CN(C)C(=O)COC(=O)C(O)(c1ccccc1)c1ccccc1` the value was inactive: -4.81%; for `C[C@@H]1C=CCP(=O)(Oc2ccccc2)O1` (some centres undefined), inactive: 4.98%.
The value for `C[C@H]1OP(=O)(Oc2ccccc2)C[C@@H]2O[C@@H]21` (some centres undefined) was inactive: -2.41%; that for `N#C/C(=C\c1ccc(N(CCBr)CCBr)cc1)C(N)=O` was active: 51.3%; that for `CC(=O)c1ccc(N2CC2c2ccncc2)cc1` (centres undefined) was inactive: -3.54%.
As for `COC(=O)C1(C)COP(=O)(NCc2ccccc2)OC1` (centres undefined), the inhibition was inactive: 4.59%.
`CC(=O)Nc1ccc([As](=O)(O)O)c(O)c1`: the inhibition is inactive: -10.4%.
In the case of `CC(=O)Nc1ccc(Oc2c([N+](=O)[O-])cc([N+](=O)[O-])cc2[N+](=O)[O-])cc1`, the inhibition is inactive: -4.08%.
The value for `CN(C(=O)Cc1ccc(Cl)c(Cl)c1)[C@H]1CCCC[C@H]1N1CCCC1` was inactive: 1.69%; that for `Cc1ccc(N/C(=N/P(=O)(N2CCOCC2)N2CCOCC2)N2CCOCC2)cc1` was inactive: -1.77%; that for `NC(=O)c1cc([N+](=O)[O-])cc([N+](=O)[O-])c1N` was inactive: 6.2%.
As to `Clc1ccc(Cl)c(NC2=NCC(CBr)S2)c1` (centres undefined), the inhibition was inactive: -4.29%.
For `CN1CCCC(OC(=O)C(c2ccccc2)c2ccccc2)C1` (centres undefined) the value was inactive: -9.82%.
In the case of `COc1ccccc1OP(=O)(Nc1ccc(C)cn1)Oc1ccccc1OC`, the inhibition is inactive: -3.44%.
As for `Oc1ccccc1CNc1ccccn1`, the inhibition is inactive: -0.0275%.
Turning to `O=C(NC(Sc1ccncn1)C(Cl)(Cl)Cl)c1ccccc1` (centres undefined), the inhibition was inactive: -0.938%.
Regarding `CC(C)CC(=O)NC(Sc1ccc(Cl)cc1)C(Cl)(Cl)Cl` (centres undefined), the inhibition was inactive: -11.5%.
For `Nc1cc(N)c2nonc2c1[N+](=O)[O-]`, the inhibition is inactive: 2.31%.
The value for `CN(C)P(=O)(N(C)C)n1c(Nc2ccccc2)nnc1-c1ccccc1` was inactive: -2.15%.
Take `O=P(Nc1nc2ccc(Cl)cc2s1)(c1ccccc1)c1ccccc1`: the inhibition was inactive: -2.02%.
In the case of `O=C(O)c1ccccc1[As](=O)(O)O`, the inhibition is inactive: -3.26%.
Take `CC(=O)Nc1ccc([As](=O)(O)O)cc1`: the inhibition was inactive: 1.41%.
Turning to `CCCC1OP(N)(=O)OCC1CC` (centres undefined), the inhibition is inactive: -6.35%.
For `CCOP(=O)(Nc1ccccc1)OCC` the value was inactive: 2.16%; for `Cc1cc(SC(NC(=O)c2ccc(F)cc2)C(Cl)(Cl)Cl)ncn1` (centres undefined), inactive: -8.64%; for `Cc1ccc(NP(=O)(Oc2ccccc2F)Oc2ccccc2F)nc1`, inactive: 4.18%.
Regarding `CN(C(=O)Cc1ccc(Cl)c(Cl)c1)[C@H]1CCCC[C@@H]1N1CCCC1`, the inhibition is active: 84%.
As to `Nc1cccc2ccc([As](=O)(O)O)cc12`, the inhibition is inactive: -8.2%.
The value for `CCN(N=Nc1nonc1N)c1nonc1N` was inactive: 7.89%; that for `O=P1(N(CCCl)CCCl)OCCCS1` (centres undefined) was inactive: -7.04%.
Turning to `O=C(Nc1cc([As](=O)(O)O)ccc1O)c1ccccc1`, the inhibition is inactive: -4.47%.
On to `O=[N+]([O-])c1ncn(CCn2ncnc2[N+](=O)[O-])n1`, for which the inhibition was inactive: 5.48%.
In the case of `CC(C)(C)C(=O)NC(Sc1ccncn1)C(Cl)(Cl)Cl` (centres undefined), the inhibition was inactive: 0.96%.
Regarding `O=C(O)CNc1ccc([As](=O)(O)O)cc1`, the inhibition is inactive: 5.2%.
As to `O=[N+]([O-])c1cccc(NC2=NCC(CBr)S2)c1` (centres undefined), the inhibition was inactive: -4.85%.
Consider `COC(=O)C1(C)COP(=O)(Nc2ccccc2)OC1` (centres undefined), for which the inhibition is inactive: 2.32%.
Consider `COc1ccc(C2=NCC(CBr)S2)cc1` (centres undefined), for which the inhibition was inactive: -9.18%.
For the compound `Cc1ccc(NP(=O)(Oc2ccccc2)Oc2ccccc2)nc1`, the inhibition was inactive: 1.3%.
As for `CCc1nc2c(n1)c1c(non1O)c1c2no[n+]1[O-]`, the inhibition was inactive: -28.5%.
The value for `O=[N+]([O-])c1cc([N+](=O)[O-])c(CCNc2ccccc2)c([N+](=O)[O-])c1` was inactive: 1.23%; that for `O=[N+]([O-])c1cccc2n[nH]nc12` was inactive: -0.0685%.
Regarding `CC(=O)N1C2C3N(C(C)=O)C1C1N(C(C)=O)C(C(N1C(C)=O)N3C(C)=O)N2C(C)=O`, the inhibition was inactive: 5.4%.
Turning to `CCN(/C(=N/P(=O)(N1CCOCC1)N1CCOCC1)N1CCOCC1)c1ccc(OC)cc1`, the inhibition was inactive: -9.99%.
The value for `Nc1ccc([As](=O)(O)c2ccc(N)cc2)cc1` was inactive: -1.98%.
For `C[N+]1=C2C=CC=CC=C2SC12C([N+](=O)[O-])=CC([N+](=O)[O-])=C[C-]2[N+](=O)[O-]` (centres undefined), the inhibition was inactive: -43.2%.
In the case of `c1cc(-c2nn[nH]n2)ccc1-c1nn[nH]n1`, the inhibition was inactive: -5.73%.
On to `CC1CCN(C(=O)Oc2c(Cl)cc(Cl)c3cccnc23)CC1`, for which the inhibition was inactive: 2.33%.
Regarding `CC(C)=N/N=C(\N)N[N+](=O)[O-]`, the inhibition is inactive: 6.36%.
The value for `CC(C)c1nc(Nc2ccccc2)n(P(=O)(N(C)C)N(C)C)n1` was inactive: 2.74%.
In the case of `CN(C)C(=O)OCCc1n(C)cc[n+]1C`, the inhibition was inactive: -1.93%.
As for `COP1(=S)c2c(C)nn(CCC#N)c2N=C(c2ccc(F)cc2)N1C` (centres undefined), the inhibition is inactive: 9.18%.
`O=C(O)C(=O)c1ccc(N(CCCl)CCCl)cc1`: the inhibition was inactive: 12.9%.
The value for `O=C(COc1ccccc1)OC1CN2CCC1CC2` (centres undefined) was inactive: 3.34%.
For `O=C(Nc1ccncc1[N+](=O)[O-])c1ccc([N+](=O)[O-])cc1[N+](=O)[O-]` the value was inactive: 6.81%.
In the case of `O=C(OC1CN2CCC1CC2)c1cccc([N+](=O)[O-])c1` (centres undefined), the inhibition was inactive: 1.87%.
Regarding `CSc1ccc(Nc2c([N+](=O)[O-])cc([N+](=O)[O-])cc2[N+](=O)[O-])cc1`, the inhibition is inactive: 0.581%.
As for `CCOC(=O)c1ccc(NC(=O)C(C)(CCl)SC)cc1` (centres undefined), the inhibition was inactive: -2.13%.
In the case of `CCC(C)N(CC(C)C)C(=S)SC(NC(C)=O)C(Cl)(Cl)Cl` (centres undefined), the inhibition is inactive: 2.37%.

As usually defined, the inhibition is the change of the read-out against control, counted positive when it falls.
